Assay outcomes (PubChem BioAssay)
A selection: hits, their analogues and other compounds. The true share with any hit is near 1.3%.
PINK1 modulator: modulators of PINK1 expression; AID 624263; PINK1 immunofluorescence, high-content cytometry, 24 h; Potency, µM (highest dose often 76.6 µM), without a hit: at the highest dose activation (PINK1 increase), usual class: activators; 410,000 compounds, 0.2% hits; active means well fitted activation curve with a large enough effect; inconclusive means small, poorly fitted or top-dose-only effect; cell line not stated here; further: potency means the concentration at half of the fitted maximal effect; % of control where 0% means no effect; nearly all actives have a fitted effect of over 65% in size
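PINK1 protein, normally rapidly degraded, was detected by immunofluorescence after 24 hour compound treatment of a stable cell line. Titration data (5 concentrations) came from laser-scanning cytometry, with CCCP-treated wells as controls.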
Giardia kill: kills Giardia lamblia. Giardia lamblia trophozoite viability. 340,000 compounds, 0.15% hits. activity change, % at 7.66 µM, hits read low; in the data active means activity change below about -80%; inconclusive means between about -30% and that limit;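 further: parasites exposed to compound for two days anaerobically before the ATP read; on the % scale 0 is the no-effect control and ±100 the full control effect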
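Trophozoite viability was measured as ATP-dependent luminescence, read 15-30 min after reagent addition. Before that, parasites at 100 cells/well were exposed to compounds for 48 h, anaerobically, at 37 deg C.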
PTHR1 ag: agonists of human PTHR1 parathyroid hormone receptor. Q03431. HEK293 GP2 PTHR1 cells, GloSensor cAMP luminescence, 1 h. Potency, µM (doses to about 115 µM), for the others: at the top dose activation, usual class: activators. 410,000 compounds, 0.075% hits; further: potency means the concentration at half of the fitted maximal effect; nearly all actives have a fitted effect of over 55% in size
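HEK-293-derived GP2 cells expressing PTHR1 and a GloSensor cAMP reporter, 3,000/well, plated overnight, given luciferin plus IBMX (each 0.5 mM as added) for 1 h at 37 °C, then compound for 1 h at 37 °C. Luminescence was read after 15 min at room temperature.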
ALOX12 inh: blocks human arachidonate 12S-lipoxygenase; purified 12hLO, xylenol orange hydroperoxide absorbance; AID 1671190; P18054; 580,000 compounds, 1.1% hits; Potency, µM (titrated, usually from 108 µM), inactives show at the highest dose activity change, negative = inhibition, usual class: inhibitors; further: potency means the concentration at half of the fitted maximal effect; on the % scale 0 is the no-effect control and ±100 the full control effect
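Hydroperoxide product was detected by ferrous iron/xylenol orange as the 573 to 405 nm absorbance ratio. Arachidonic acid at 40 uM (final) was turned over for 30 min at room temperature by 150 nM human 12hLO, pH 7.0 Hepes buffer, after 15 min compound preincubation.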
ERG-DNA inh: blocks human ERG Ets domain binding to DNA | P11308 | fluorescence polarization, His-ERG Ets domain / labelled DNA | Potency, µM (top dose mostly 76.9 µM), for the others: top-dose FP activity, negative = inhibition, most hits filed as inhibitors | 370,000 compounds, 0.028% hits | AID 624246; active means well fitted inhibition curve with a large enough effect in the polarisation, with a control signal flat; inconclusive means small, poorly fitted or top-dose-only effect, or effect the other way, or a change in a side signal; inactive means no such curve, though single readings can be large or run the other way; the % refers to the polarisation;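 further: polarization taken with two DNA probes labelled with fluorescein and Texas red; potency means the concentration at half of the fitted maximal effect; % of control where 0% means no effect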
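His-tagged ERG Ets domain (1 uM in the protein solution; 300mM KCl, 50mM Tris-HCl, 1mM EDTA, 1mM DTT, pH 7.5) received compound, then a probe mix of 5 nM fluorescein-DNA and 100nM Texas-615-DNA. Fluorescence polarization was read for both dyes.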
miR-21 FLuc: miR-21 reporter, rising signal. HeLa miR-21 FLuc reporter, luciferase, 48 h. Potency, µM (highest dose often 38.3 µM), for the others: at the highest dose reporter change, positive = more light. 340,000 tested, under 10 active. AID 2288; active = well fitted rising curve with a large enough effect; inconclusive = small, poorly fitted or top-dose-only effect; inactive = no such curve, though single readings can be large or run the other way;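 further: % of control where 0% means no effect; miR-21 action dims this reporter so a rising signal means less miR-21 action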
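HeLa cells stably expressing CMV-driven firefly luciferase with a downstream miR-21 binding sequence, endogenously expressing miR-21, were treated with titrations (up to about 40uM final) for 48 hours at 37 degree Celsius. Luciferase luminescence was read after lysis.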
Numbers without * were called inactive; i = inactive; ? = inconclusive; / = not tested or not shown; ! = not confirmed by another sample; [ ] = remark or other dose. Unless noted, the call rests on the fitted dose curve; in most records, active means well fitted curve in the direction sought with a large enough effect; inconclusive means small, poorly fitted or top-dose-only effect, or another doubt; inactive means no such curve, though single readings can be large; an effect the other way counts as inactive or inconclusive.

Values run as follows: PINK1 modulator | Giardia kill | PTHR1 ag | ALOX12 inh | ERG-DNA inh | miR-21 FLuc
- CCOc1ccc(N2CC(NC(=O)C3CC3)CC2=O)cc1 (stereo not given)
→ -0.6% | / | -19.1% | -0.3% | -2.3% | -1.4%
- COc1ccc(-c2nc3cc(NC(=O)COc4ccc(F)cc4)ccc3o2)cc1
→ 8.5% | / | i | ? | 1.6% | -20.9%
- O=C(COc1ccc([N+](=O)[O-])cc1)Nc1ccc2oc(-c3ccc(F)cc3)nc2c1
→ / | / | / | 7.94µM* | / | /
- CN=c1scc(-c2ccco2)n1/N=C/c1ccc(O)c(O)c1
→ 24.6% | -26.8 | -25.8% | 39.8µM* | 1.0% | -49.0%
- COCc1nncn1C1CCN(S(=O)(=O)c2ccc(C)c(F)c2)CC1
→ / | / | / | 50.7% | / | /
- O=C(N/N=C/c1cc(Br)cc(Cl)c1O)c1ccc2c(c1)OCO2
→ 7.3% | 6.1 | -7.6% | 22.4µM* | -0.3% | /
- C/C(=N\NC(=S)NC(C)C)c1ccc(Cl)s1
→ 5.7% | 7.7 | i | 44.7µM* | -13.4% | 2.3%
- O=C(NC1=C(NC2CCS(=O)(=O)C2)C(=O)c2ccccc2C1=O)c1ccccc1 (stereo not given)
→ 1.2% | 7.9 | -62.4% | ? | 0.7% | ?
- CCCCSc1oc(-c2ccco2)nc1S(=O)(=O)c1ccccc1
→ 3.4% | -3.0 | -23.9% | ? | 6.8% | -1.5%
- Cc1ccc(-c2nc(S(=O)(=O)c3ccc(C)cc3)c(SCC(=O)c3ccccc3)o2)cc1
→ -2.1% | / | -16.7% | -0.8% | 10.7% | -1.5%
- CCCSc1oc(-c2ccco2)nc1S(=O)(=O)c1ccc(Cl)cc1
→ 1.4% | / | -17.5% | 39.8µM* | 2.3% | 3.9%
- Cc1ccc(S(=O)(=O)c2nc(-c3ccco3)oc2SCC(C)C)cc1
→ -0.3% | / | -22.1% | ? | -1.9% | 6.0%
- CCSc1oc(-c2ccco2)nc1S(=O)(=O)c1ccc(C)cc1
→ 2.5% | -16.3 | -15.5% | ? | 1.7% | 3.3%
- CCSc1oc(-c2ccco2)nc1S(=O)(=O)c1ccc(F)cc1
→ -1.3% | 18.5 | i | 28.2µM*! | -12.0% | -3.0%
- CCSc1oc(-c2ccc(C)cc2)nc1S(=O)(=O)c1ccccc1
→ / | / | / | 31.6µM* | / | /

Reprinted from the part before: four entries; new compounds follow.
Values run as follows: PINK1 modulator | Giardia kill | PTHR1 ag | ALOX12 inh | ERG-DNA inh | miR-21 FLuc
- Cc1ccc(S(=O)(=O)c2nc(-c3ccco3)oc2SCC(C)C)cc1
→ -0.3% | / | -22.1% | ? | -1.9% | 6.0%
- CCSc1oc(-c2ccco2)nc1S(=O)(=O)c1ccc(C)cc1
→ 2.5% | -16.3 | -15.5% | ? | 1.7% | 3.3%
- CCSc1oc(-c2ccco2)nc1S(=O)(=O)c1ccc(F)cc1
→ -1.3% | 18.5 | i | 28.2µM*! | -12.0% | -3.0%
- CCSc1oc(-c2ccc(C)cc2)nc1S(=O)(=O)c1ccccc1
→ / | / | / | 31.6µM* | / | /
- Cc1ccc(S(=O)(=O)c2nc(-c3ccco3)oc2SC(C)C)cc1
→ 2.6% | 10.5 | -23.1% | 31.6µM*! | 6.1% | -11.4%
- CN(C(=O)CSc1nnc(Cc2ccccc2F)n1N)C1CCCCC1
→ 0.9% | -5.2 | i | 1.4% | 6.7% | /
- Cc1cc(C)cc(OCC(=O)NNC(=O)CCC(=O)NCc2ccccc2)c1
→ 2.4% | -2.3 | -23.8%[57.5 µM] | 2.7% | 2.7% | -0.6%
- CCNC(=O)N1CCN(CCCC(c2ccc(F)cc2)c2ccc(F)cc2)CC1
→ -0.1% | -9.5 | -30.8% | 35.5µM* | -3.8% | /
- N#C/C(C(=O)Nc1ccc(Cl)cc1)=C(/S)Nc1ccccc1
→ 1.8% | -3.3 | i | 1.78µM* | 4.2% | -11.0%
- O=C(NC(=S)NCCC1=CCCCC1)c1cccs1
→ / | / | / | 11.2µM* | / | /
- COc1ccc(C(=O)O)cc1N1C(=O)Nc2ccccc2N1O
→ 0.4% | 1.3 | i | 44.7µM* | 5.8% | -0.1%
- O=C1/C(=C/c2ccccc2F)CCc2ccccc21
→ / | / | / | 3.16µM* | / | /
- O=C1/C(=C\c2ccc([N+](=O)[O-])cc2)CCc2ccccc21
→ 1.5% | -90.8* | -83.8% | -13.7% | -4.0% | -20.8%
- O=C(NC(c1ccc(F)cc1)c1ccc2ccccc2n1)C1CCN(Cc2ccc3ccccc3n2)CC1 (stereo not given)
→ 0.5% | / | 0.4% | 15.8µM* | / | /
- CN(C)c1ccc(CN2CCC(C(=O)NC(c3ccc(F)cc3)c3ccc4ccccc4n3)CC2)cc1 (stereo not given)
→ -1.3% | / | i | ? | / | /
- COC(=O)c1cccc(CN2C(=O)C(C)Sc3ccc(C#N)cc32)c1 (stereo not given)
→ -1.2% | / | i | 2.2% | / | /
- O=[N+]([O-])c1ccc(NC(=S)Nc2ccc3c(c2)CCC3)cc1
→ / | / | / | 39.8µM* | / | /
- Nc1nc(NC(=O)c2ccc(F)cc2)ns1
→ -0.5% | 15.6 | i | 4.0% | -3.5% | /
- O=C1NC[C@H](Cc2ccc(O)cc2)N(C[C@@H]2CCCN2C[C@H](Cc2ccc(O)cc2)N2C[C@H](Cc3ccccc3)N(CC3CCCCCC3)C(=O)C2=O)C1=O
→ 0.8% | / | 29.3% | ? | / | /

Following part.
Values run as follows: PINK1 modulator | Giardia kill | PTHR1 ag | ALOX12 inh | ERG-DNA inh | miR-21 FLuc
- O=C1NC[C@H](CCCCN2C[C@H](Cc3ccc(O)cc3)N(CC3CCCCC3)C(=O)C2=O)N(CC2CCCCC2)C1=O
→ -0.3% | / | 10.3% | 44.7µM* | / | /
- O=C1NC[C@H](Cc2ccccc2)N(C[C@H]2CCCN2C[C@H](Cc2ccc(O)cc2)N2C[C@H](Cc3ccc(O)cc3)N(CC3CCCCCC3)C(=O)C2=O)C1=O
→ 2.1% | -1.3 | 15.5% | 15.8µM* | -11.3% | /
- O=C1NC[C@H](Cc2ccc(O)cc2)N(C[C@@H]2CCCN2C[C@H](Cc2ccccc2)N2C[C@H](Cc3ccc(O)cc3)N(CC3CCCCCC3)C(=O)C2=O)C1=O
→ 4.7% | / | ? | 25.1µM* | / | /
- O=C1NC[C@H](Cc2ccccc2)N(C[C@H]2CCCN2C[C@H](Cc2ccccc2)N2C[C@H](Cc3ccc(O)cc3)N(CC3CCCCCC3)C(=O)C2=O)C1=O
→ 3.0% | 28.9 | -3.3% | ? | 0.7% | /
- Cc1cc(Cl)ccc1NC(=O)CN1C(=O)CSc2ccc(S(=O)(=O)N3CCOCC3)cc21
→ -0.9% | 34.3 | -26.4% | -4.2% | -0.7% | -4.5%
- Fc1ccc(/C=N/Nc2ccc(F)cc2)cc1
→ / | / | / | 2.24µM* | / | /
- Brc1ccc(/C=N/Nc2ccccc2)cc1
→ 8.4% | 21.9 | ? | 44.7µM* | 6.4% | -22.5%
- CN(C)Cc1ccccc1CN(C)c1nc(-c2cccnc2)nc2c1CNC2
→ / | / | / | 82.0% | / | /
- CNC(=O)C1(N2CCC[C@H]2C(=O)NCCOC)CCOCC1
→ / | / | / | 10µM* | / | /
- CCNC(=O)[C@@H]1CCCN1C1(C(=O)NC)CCOCC1
→ / | / | / | -1.2%[176 µM] | / | /
- NC(=O)C1(NC(=O)[C@@H]2CC3(CC(c4cccc(NC(=O)[C@@H]5CCC(=O)N5)c4)=NO3)CN2C(=O)Cc2ccc(C(F)(F)F)cc2)CC1 (stereo not given in full)
→ 0.2% | -5.4 | i | ? | -7.3% | -0.1%
- COCC(=O)NC[C@H]1O[C@@H](CO)[C@@H](O)[C@H]1N1CCOCC1
→ / | / | / | -8.6%[176 µM] | / | /
- NC(=O)C1CCN(C(=O)CCc2nc3sc4c(c3c(=O)[nH]2)CCCC4)CC1
→ -5.9% | 5.7 | -16.0% | 17.8µM*! | 0.0% | /
- O=C(CCc1nc2sc3c(c2c(=O)[nH]1)CCCC3)N1CCCCC1
→ / | / | / | 15.5% | / | /
- CSc1nc(Nc2ccc(Cl)cc2)c(C#N)c(=O)[nH]1
→ -0.9% | -2.1 | i | 6.31µM* | -6.8% | -26.2%
- C=C1CCC2C(CC2(C)C)C(=O)CCC1O (stereo not given)
→ -2.3% | / | / | / | / | /
